According to US20220017433A1 (UNIVERSITÄT ZÜRICH, priority 2018, published 2022):

Assay: Water solubility of the chelating compounds
Type: physicochemical
Conditions: aqueous, high pH

## Desferrioxamine-p-arylazide [DFO-ArN3]
  solubility: sparingly soluble
